Measured values from patent US11918551B2, “Methods of treating seizure disorders and Prader-Willi syndrome” (Ovid Therapeutics, Inc., priority 2017, dated 2024).

Assay: plasma pharmacokinetics (elimination half-life, dose proportionality of Cmax and AUC)
Conditions: over a range of 5 mg-500 mg

- Cmax dose proportionality: increases in a dose proportional manner
Structure (SMILES): N[C@H]1C[C@@H](C(=O)O)CC1=C(F)F
